Experimental data from paper PMC13181761, “New Analogs of the Compstatin Family of Clinical Complement Inhibitors with Low Picomolar Target Affinity” (Journal of Medicinal Chemistry, 2026).

Test system: C3b deposition and TCC formation in CP and LP activation
Assay: CP and LP activation ELISA / duplex ELISA (C3b and TCC detection)
Type: biochemical, human
Settings: 1% NHS, up to 500 nM
Method: Simultaneous monitoring of complement activation markers at the level of C3b-deposition and terminal complement complex (TCC) formation was assessed using biotinylated Cp60 and a mouse antihuman TCC mAb (clone aE11, Hycult), respectively. To evaluate classical pathway activity, flat-bottom MaxiSorp 96-well plates (Thermo) were coated overnight at room temperature with 33 μg/mL IgM (Sigma-Aldrich) diluted in 0.1 M sodium carbonate buffer. For lectin pathway activity, plates were coated overnight with 55 μg/mL mannan (from Saccharomyces cerevisiae; Sigma-Aldrich). Plates were washed 5 times with phosphate-buffered saline (PBS; Dulbecco’s, Bioconcept) supplemented with 0.05% Tween-20 (PBS-T). […] Alkaline phosphatase yellow pNPP substrate (Sigma-Aldrich) was added, and the colorimetric reaction was monitored at 405 nm by using a plate reader (Synergy HT, BioTek) at 37 °C for 15 min. Following TCC quantification, plates were washed 5 times with PBS-T, and 1-Step Turbo TMB-ELISA solution (Thermo Scientific) was added for C3b quantification. The reaction was allowed to develop until a light blue color appeared and was stopped by adding 100 μL of 2 M sulfuric acid; the absorbance was measured at 450 nm. […]

B1: eculizumab: anti-C5 terminal pathway blocker; surrogate of the clinical mAb (MedChemExpress) (antibody, chains of the INN, looked up)
heavy: QVQLVQSGAEVKKPGASVKVSCKASGYIFSNYWIQWVRQAPGQGLEWMGEILPGSGSTEYTENFKDRVTMTRDTSTSTVYMELSSLRSEDTAVYYCARYFFGSSPNWYFDVWGQGTLVTVSSASTKGPSVFPLAPCSRSTSESTAALGCLVKDYFPEPVTVSWNSGALTSGVHTFPAVLQSSGLYSLSSVVTVPSSNFGTQTYTCNVDHKPSNTKVDKTVERKCCVECPPCPAPPVAGPSVFLFPPKPKDTLMISRTPEVTCVVVDVSQEDPEVQFNWYVDGVEVHNAKTKPREEQFNSTYRVVSVLTVLHQDWLNGKEYKCKVSNKGLPSSIEKTISKAKGQPREPQVYTLPPSQEEMTKNQVSLTCLVKGFYPSDIAVEWESNGQPENNYKTTPPVLDSDGSFFLYSRLTVDKSRWQEGNVFSCSVMHEALHNHYTQKSLSLSLG
light: DIQMTQSPSSLSASVGDRVTITCGASENIYGALNWYQQKPGKAPKLLIYGATNLADGVPSRFSGSGSGTDFTLTISSLQPEDFATYYCQNVLNTPLTFGQGTKVEIKRTVAAPSVFIFPPSDEQLKSGTASVVCLLNNFYPREAKVQWKVDNALQSGNSQESVTEQDSKDSTYSLSSTLTLSKADYEKHKVYACEVTHQGLSSPVTKSFNRGEC
  effect on TCC deposition and C3 opsonization: affected only TCC deposition but not C3 opsonization
